# Reference: article PMC3179181 (Journal of medicinal chemistry, 2010)
# Key:
# [1] = tested on: non-transformed cells; conditions: data not shown
# [2] = well-stirred model, from rat microsomal CLint
# [3] = in vitro; conditions: rat, microsomes, pH 7.4
smiles,measurement,setting,value
"O=C(NCCN1CCC2(CC1)C(=O)NCN2c1cccc(F)c1)c1ccc2ccccc2c1 [22a, N-(2-(1-(3-fluorophenyl)-4-oxo-1,3,8-triazaspiro[4.5]decan-8-yl)ethyl)-2-naphthamide]",cytotoxicity,[1],significantly less cytotoxic
same,predicted hepatic clearance (CLhep),[2],52 mL/min/kg
same,CLint scaled at 1 µM,[3],203 mL/min/kg
